Molecular target: T1, human p38 kinase alpha (Homo sapiens, UniProt Q16539)
T1 construct: GST (N, cleaved yes); made in house; host or cells: E. coli DH10B
Assay: p38 kinase in vitro assay, phosphorylation of biotinylated PHAS-I with 32P-ATP
Type: biochemical
Details: in vitro P38-alpha kinase inhibition
Description: The coding region of the human p38a cDNA was obtained by PCR-amplification from RNA isolated from the human monocyte cell line THP.1. […] Random primer, dNTP's and Superscript™ reagents were all purchased from Life-Technologies, Gaithersburg, Mass. The reaction was incubated at 42° C. for 1 hour. Amplification of p38 cDNA was performed by aliquoting 5 μl of the reverse transcriptase reaction into a 100 μl PCR reaction containing the following: 80 μl dH2O, 2 μl 50 mM DNTP's, 1 μl each of forward and reverse primers (50 pmol/μl), 10 μl of 10×buffer and 1 μl Expand™ polymerase (Boehringer Mannheim). The PCR primers incorporated BamHI sites onto the 5′ and 3′ end of the amplified fragment, and were purchased from Genosys. […] The PCR amplification was carried out in a DNA Thermal Cycler (Perkin Elmer) by repeating 30 cycles of 94° C. for 1 minute, 60° C. for 1 minute and 68° C. for 2 minutes. After amplification, excess primers and unincorporated dNTP's were removed from the amplified fragment with a Wizard™ PCR prep (Promega) and digested with BamHI (New England Biolabs). […]
Overnight cultures were grown in-Luria Broth (LB) containing […] ampicillin. The next day, 500 ml of fresh LB was inoculated with 10 ml of overnight culture, and grown in a 2 liter flask at 37° C. with constant shaking until the culture reached an absorbance of 0.8 at 600 nm. […]

Chains of the proteins cited; added tags and fusions are not shown.
UniProt Q16539, whole entry: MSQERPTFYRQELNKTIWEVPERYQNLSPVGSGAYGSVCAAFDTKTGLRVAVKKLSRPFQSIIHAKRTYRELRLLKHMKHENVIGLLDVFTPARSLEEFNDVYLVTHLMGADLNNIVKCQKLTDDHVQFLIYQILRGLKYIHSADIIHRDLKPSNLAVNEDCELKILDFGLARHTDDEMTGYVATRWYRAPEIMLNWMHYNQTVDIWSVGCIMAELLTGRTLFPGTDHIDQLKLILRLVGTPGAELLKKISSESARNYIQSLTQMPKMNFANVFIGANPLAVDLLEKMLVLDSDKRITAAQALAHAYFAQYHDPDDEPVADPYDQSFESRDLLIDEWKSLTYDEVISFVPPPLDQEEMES

In the case of `CC(NC(=O)c1cccc2ccccc12)c1[nH]nc(-c2ccc(F)cc2)c1-c1ccncc1` (stereo not shown) [Example B-0677], the IC50 is reported as 1630 nM.

Reference: patent US6979686B1, “Substituted pyrazoles as p38 kinase inhibitors” (Pharmacia Corporation, priority 2001, dated 2005)
